According to article PMC9770967, “Native holdup (nHU) to measure binding affinities from cell extracts” (Science Advances, 2022):

Key:
SNX27_PDZ [1] = experiment: AP-MS control pull-down on leftover resin, SNX27_PDZ bait, total SH-SY5Y extracts; format: binding, human; conditions: n = 6
Protocol: Leftover beads from nHU-MS experiments were washed three times immediately after the separation of the supernatant [10 resin volume in buffer containing 50 mM tris (pH 8.5), 150 mM NaCl, 1% Triton X-100, 10× cOmplete EDTA-free protease inhibitor cocktail, 2 mM EDTA, and 1 mM TCEP]. Then, the beads were washed two times [10 resin volume buffer containing 50 mM tris (pH 8.5), 150 mM NaCl, and 1 mM TCEP]. Last, captured protein was eluted from the resin in two steps, and the eluted fractions were pooled. For each elution, the beads were incubated for 30 min with three resin volume buffer containing 20 mM tris (pH 8.5), 100 mM NaCl, 500 μM TCEP, and 8 M urea. Between each step, the beads were separated by mild centrifugation, and the supernatant was removed by gentle pipetting.
The nHU samples were precipitated with trichloroacetic acid (TCA) 20% overnight at 4°C and centrifuged at 14,000 rpm for 10 min at 4°C. The protein pellets were washed twice with 1 ml of cold acetone and air-dried. […]
Samples were analyzed using an Ultimate 3000 nano-RSLC coupled in line via a nano-electrospray ionization source, with an LTQ-Orbitrap ELITE mass spectrometer (Thermo Fisher Scientific, San Jose, CA) or with the Orbitrap Exploris 480 mass spectrometer (Thermo Fisher Scientific, Bremen, Germany) equipped with a high field asymmetric ion mobility spectrometry (FAIMS) module. […]

SNX27_PDZ [2] = experiment: nHU-MS, SNX27_PDZ bait, total SH-SY5Y extracts; format: binding, human; conditions: n = 6
Protocol: SNX27_PDZ (40-141) was cloned as His6-AviTag-MBP-TEV-SNX27_PDZ, and full-length SNX27 (1-541) was cloned as AviTag-MBP-SNX27-His6 construct in pET vectors. The empty His6-AviTag-MBP-TEV vector was used to produce biotinylated MBP for control experiments. Proteins were coexpressed with BirA biotin ligase (PET21a-BirA, Addgene, no. 20857) in Escherichia coli BL21(DE3) cells. At isopropyl-β-D-thiogalactopyranoside (IPTG) induction (1 mM IPTG at 18°C overnight), 50 μM biotin was added to the media. Harvested cells were lysed in a buffer containing 50 mM tris (pH 7.5), 150 to 300 mM NaCl, 50 μM biotin, 2 mM β-mercaptoethanol, cOmplete EDTA-free protease inhibitor cocktail (Roche, Basel, Switzerland), 1% Triton X-100, and trace amount of deoxyribonuclease, ribonuclease, and lysozyme. Lysates were frozen at −20°C before further purification steps. Lysates were sonicated and centrifuged for clarification. Expressed proteins were captured on in-house prepacked Ni-IDA (Protino Ni-IDA Resin, Macherey-Nagel, Duren, Germany) columns and were washed with at least 10 column volumes of cold wash buffer [50 mM tris (pH 7.5), 150 mM NaCl, and 2 mM β-mercaptoethanol] before elution with 250 mM imidazole. […] The concentration of proteins was determined by their ultraviolet absorption at 280 nm before aliquots were snap-frozen in liquid nitrogen and stored at −80°C. […]

KARS1: Lysine--tRNA ligase
FC_AP (log2 fold change) (SNX27_PDZ [1]): -0.9712 | Ratio_AP (SNX27_PDZ [1]): 0.5101 | FC_HU (log2 fold change) (SNX27_PDZ [2]): -0.597 | Ratio_HU (SNX27_PDZ [2]): 0.6611
